Values quoted from earlier work in US7604797B2, “Compositions and methods for treating burns” (BioMechanisms Inc., priority 2003, dated 2009).

Test system: burn patients
Conditions: in vivo

## Neomycin
  Toxicity and adverse effects in use: Ototoxicity and
